Data as given in patent EP4831170A1, “NITROGEN HETEROCYCLIC COMPOUND AND USE THEREOF” (dated 2026).

What was measured:
[1] = Kinetic solubility in PBS, LC-MS/MS; conditions: 100 mM PBS, 1 hour shaking at room temperature
[2] = system: senescent cells (A549 cells); assay: Senescent cell viability assay (CellTiter-Glo), etoposide-induced senescent A549 cells; conditions: read-out: IC50 (µM, senescent cells), A549 cells made senescent with etoposide (10 µM), 72 h incubation

Row | SMILES | Kinetic solubility [1] [µM] | IC50 [2] [µM]
1 | Cc1c(-c2ccc(N3CCc4cccc(C(=O)Nc5nc6ccccc6s5)c4C3)nc2C(=O)O)cnn1CC12CC3CC(CC(C3)C1)C2 | 0.021 | –
2 | CC1C(c2ccc(N3CCc4ccnc(C(=O)Nc5nc6ccccc6s5)c4C3)nc2C(=O)O)CCN1CC12CC3CC(CC(C3)C1)C2 (centres unmarked) | – | 1 to 10
3 | Cc1c(-c2ccc(N3CCc4ccnc(C(=O)Nc5nc6ccccc6s5)c4C3)nc2C(=O)N2CCC(COP(=O)(O)O)CC2)cnn1CC12CC3CC(CC(C3)C1)C2 | – | < 0.2
4 | Cc1c(-c2ccc(N3CCc4ccnc(C(=O)Nc5nc6ccccc6s5)c4C3)nc2C(=O)N2CCC(OP(=O)(O)O)CC2)cnn1CC12CC3CC(CC(C3)C1)C2 | – | < 0.2
5 | COC(=O)C12CC3CC(CC(Cn4ncc(-c5ccc(N6CCc7ccnc(C(=O)Nc8nc9ccccc9s8)c7C6)nc5C(=O)O)c4C)(C3)C1)C2 | – | < 0.2
